# Experimental data: PubChem BioAssay AID488960 (Johns Hopkins Ion Channel Center, 2010)
# Sequences of proteins named here, by UniProt entry; tags and fusion partners are left off.
# UniProt Q61143, whole entry: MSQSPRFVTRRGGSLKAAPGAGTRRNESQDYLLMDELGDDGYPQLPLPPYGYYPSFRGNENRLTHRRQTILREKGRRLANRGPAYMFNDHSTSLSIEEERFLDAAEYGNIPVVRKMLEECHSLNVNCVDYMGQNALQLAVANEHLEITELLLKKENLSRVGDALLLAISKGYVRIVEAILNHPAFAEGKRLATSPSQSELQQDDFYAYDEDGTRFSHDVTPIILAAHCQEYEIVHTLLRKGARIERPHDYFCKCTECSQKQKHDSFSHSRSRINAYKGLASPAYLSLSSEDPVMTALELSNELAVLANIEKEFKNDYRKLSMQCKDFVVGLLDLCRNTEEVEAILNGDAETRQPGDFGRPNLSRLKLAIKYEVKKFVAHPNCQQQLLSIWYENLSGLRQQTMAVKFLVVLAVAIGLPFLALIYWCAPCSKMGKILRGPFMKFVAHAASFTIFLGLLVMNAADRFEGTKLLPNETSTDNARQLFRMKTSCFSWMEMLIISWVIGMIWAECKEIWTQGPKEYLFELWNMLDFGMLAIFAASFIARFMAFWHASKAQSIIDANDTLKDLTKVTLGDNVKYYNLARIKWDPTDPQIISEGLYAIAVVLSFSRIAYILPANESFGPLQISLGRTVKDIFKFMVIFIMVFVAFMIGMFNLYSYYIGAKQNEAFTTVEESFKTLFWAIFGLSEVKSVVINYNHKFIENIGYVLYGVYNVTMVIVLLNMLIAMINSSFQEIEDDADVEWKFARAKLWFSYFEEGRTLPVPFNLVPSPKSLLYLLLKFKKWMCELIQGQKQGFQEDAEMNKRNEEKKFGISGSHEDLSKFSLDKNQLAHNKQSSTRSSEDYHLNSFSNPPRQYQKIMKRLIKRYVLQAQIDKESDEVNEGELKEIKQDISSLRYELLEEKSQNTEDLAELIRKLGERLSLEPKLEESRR
# The list shows a part of the results, in another mix than the full data. Active and inactive are the calls of the source.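 Rule for the calls: active = fluorescence ratio falls more than 5 SD below the full-stimulation control mean, in both duplicate runs; inactive = the rest.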
# Target: Short transient receptor potential channel 6 (Mus musculus) (UniProt Q61143)
# Test: mouse TRPC6 channel inhibitors, confirmation, HEK293 cells, membrane potential dye, duplicate (AID 488960);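 for inhibition: integrated fluorescence ratio of peak minus minimum over baseline after agonist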
# Settings: ACh-evoked depolarization, at 10 µM; stronger effect = higher value
row,SMILES,inhibition
1,CN1CCN(CCOC(=O)C(O)(c2ccccc2)c2ccccc2)CC1,active: 76%
2,O=C(OC1CN2CCC1CC2)C1c2ccccc2Oc2ccccc21 (centres undefined),inactive
3,CCC(CO)(C(=O)OC1CN2CCC1CC2)c1ccccc1 (centres undefined),active: 69.8%
4,O=C(OC1CN2CCC1CC2)C1c2ccccc2C=Cc2ccccc21 (centres undefined),active: 74%
